Among the data in patent publication US8470841B2, “Heterocyclic compounds, processes for their preparation, medicaments comprising these compounds, and the use thereof” (Sanofi, priority 2008, dated 2013) are IC50 values, retold here.

Sequences of proteins named here, by UniProt entry; tags and fusion partners are left off. Residues count along the entry.
UniProt O00763, 151-2458: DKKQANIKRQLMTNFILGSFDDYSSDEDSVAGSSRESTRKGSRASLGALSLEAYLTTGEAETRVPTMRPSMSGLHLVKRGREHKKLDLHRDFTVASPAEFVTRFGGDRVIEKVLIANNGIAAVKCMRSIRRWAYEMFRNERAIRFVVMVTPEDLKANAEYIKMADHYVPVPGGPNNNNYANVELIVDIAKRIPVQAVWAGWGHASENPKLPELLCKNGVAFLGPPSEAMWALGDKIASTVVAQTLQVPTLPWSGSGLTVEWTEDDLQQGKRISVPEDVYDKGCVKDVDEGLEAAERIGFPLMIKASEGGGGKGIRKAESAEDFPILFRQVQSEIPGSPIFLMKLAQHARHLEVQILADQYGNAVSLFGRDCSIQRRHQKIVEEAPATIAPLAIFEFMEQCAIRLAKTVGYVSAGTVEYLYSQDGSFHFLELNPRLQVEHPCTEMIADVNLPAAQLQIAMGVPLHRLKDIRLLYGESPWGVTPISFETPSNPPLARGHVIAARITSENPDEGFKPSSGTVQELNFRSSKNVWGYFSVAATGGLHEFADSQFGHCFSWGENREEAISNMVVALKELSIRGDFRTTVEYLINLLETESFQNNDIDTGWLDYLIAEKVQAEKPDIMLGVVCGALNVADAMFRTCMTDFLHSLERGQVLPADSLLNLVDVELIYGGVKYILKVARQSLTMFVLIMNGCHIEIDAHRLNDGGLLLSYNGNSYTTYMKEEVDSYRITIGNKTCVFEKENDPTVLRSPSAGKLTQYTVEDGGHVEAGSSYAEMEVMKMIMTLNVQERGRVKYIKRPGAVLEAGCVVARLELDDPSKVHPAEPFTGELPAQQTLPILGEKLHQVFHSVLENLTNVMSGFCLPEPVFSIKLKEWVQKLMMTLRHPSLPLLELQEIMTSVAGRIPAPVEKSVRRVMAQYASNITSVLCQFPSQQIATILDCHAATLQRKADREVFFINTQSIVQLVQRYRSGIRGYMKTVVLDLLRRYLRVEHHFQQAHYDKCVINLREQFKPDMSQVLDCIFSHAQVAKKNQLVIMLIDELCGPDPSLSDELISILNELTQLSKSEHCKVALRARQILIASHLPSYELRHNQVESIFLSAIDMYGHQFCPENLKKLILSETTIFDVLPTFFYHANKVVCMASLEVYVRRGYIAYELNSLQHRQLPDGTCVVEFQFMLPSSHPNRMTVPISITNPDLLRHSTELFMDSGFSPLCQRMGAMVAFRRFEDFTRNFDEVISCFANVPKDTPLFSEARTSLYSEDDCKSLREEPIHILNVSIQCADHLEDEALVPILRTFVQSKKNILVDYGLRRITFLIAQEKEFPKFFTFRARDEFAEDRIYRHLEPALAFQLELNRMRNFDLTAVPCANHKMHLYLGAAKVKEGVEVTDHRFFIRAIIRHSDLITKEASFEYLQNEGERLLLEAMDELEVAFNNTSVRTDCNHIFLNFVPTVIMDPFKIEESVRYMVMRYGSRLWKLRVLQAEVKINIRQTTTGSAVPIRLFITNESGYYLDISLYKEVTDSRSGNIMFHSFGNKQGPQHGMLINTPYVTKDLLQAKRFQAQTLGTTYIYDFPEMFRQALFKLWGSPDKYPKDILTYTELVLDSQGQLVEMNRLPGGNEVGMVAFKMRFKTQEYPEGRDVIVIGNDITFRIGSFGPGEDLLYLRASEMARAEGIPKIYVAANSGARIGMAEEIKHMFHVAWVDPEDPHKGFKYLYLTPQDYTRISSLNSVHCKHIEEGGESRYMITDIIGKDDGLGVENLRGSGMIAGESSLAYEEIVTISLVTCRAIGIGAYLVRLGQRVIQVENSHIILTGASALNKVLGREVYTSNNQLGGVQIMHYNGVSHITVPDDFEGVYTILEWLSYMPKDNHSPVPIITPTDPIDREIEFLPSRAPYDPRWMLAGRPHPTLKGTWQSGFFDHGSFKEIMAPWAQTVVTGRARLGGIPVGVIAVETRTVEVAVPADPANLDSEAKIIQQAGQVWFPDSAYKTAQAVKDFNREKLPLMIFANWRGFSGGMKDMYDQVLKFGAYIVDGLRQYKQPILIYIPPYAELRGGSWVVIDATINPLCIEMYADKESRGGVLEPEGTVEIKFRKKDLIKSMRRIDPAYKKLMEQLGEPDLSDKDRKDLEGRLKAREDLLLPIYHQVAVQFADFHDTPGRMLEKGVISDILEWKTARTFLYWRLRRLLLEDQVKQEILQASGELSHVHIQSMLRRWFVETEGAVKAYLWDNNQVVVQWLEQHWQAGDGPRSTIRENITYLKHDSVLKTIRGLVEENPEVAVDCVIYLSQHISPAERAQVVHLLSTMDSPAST

Like-named read-outs stand apart in the source and are kept apart here.

One assay deals with human ACC2 (Homo sapiens (Human), UniProt O00763). In kind it is biochemical.
The next assay has as its target rACC1 (Rattus norvegicus (Rat), UniProt P11497). In words: Enzymatic assay of ACC inhibitors, rat ACC1. In kind it is biochemical.

Consider `CC(=O)NC(C)CCc1ccc(Oc2ccc(OC(C)C)cn2)cc1` (stereo not drawn) [Example 10, N-{3-[4-(5-Isopropoxypyridin-2-yloxy)phenyl]-1-methylpropyl}acetamide], for which, on human ACC2 (human ACC2, read-out: IC50 (hACC2)), the IC50 (usually the concentration that inhibits the measured activity by half) was 150 nM.

Take `CC(=O)N[C@@H](C)COc1ccc(Oc2ccc(OC(C)C)cc2)cc1` [Example 59, N—{(S)-2-[4-(4-Isopropoxyphenoxy)phenoxy]-1-methylethyl}acetamide, reference compound]: the figures for the IC50 at human ACC2 and against rACC1 were 110 nM and greater than 10 µM, respectively.
